# scFv variants of Ab-14 (light chain) against a SARS-CoV-2 spike peptide

Reference: Li et al. 2023, doi:10.1038/s41467-023-39022-2. File: FLAb, binding data.

Target peptide (SARS-CoV-2 spike, HR2 region): PDVDLGDISGINAS

Parent: Ab-14, a human scFv built as VH, the linker GGGGSGGGGSGGGGS, VL. Only the CDRs of the light chain vary.
VH: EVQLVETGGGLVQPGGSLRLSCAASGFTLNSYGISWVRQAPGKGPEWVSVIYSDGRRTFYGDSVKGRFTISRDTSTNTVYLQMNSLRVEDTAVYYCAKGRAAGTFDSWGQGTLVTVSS
VL: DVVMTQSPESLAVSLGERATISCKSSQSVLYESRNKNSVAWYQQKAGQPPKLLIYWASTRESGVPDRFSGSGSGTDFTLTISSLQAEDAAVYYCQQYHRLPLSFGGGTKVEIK

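Phage display of a naive human antibody library on the peptide gave the parent. Designed CDR sequences, proposed from the first random library and measured here. Their group label is 14L_GP_Gibbs (GP: Gaussian process model; Gibbs: Gibbs sampling; a sequence that several methods proposed may carry one label only). In AlphaSeq, yeast of one mating type display the scFv and yeast of the other type display the target. After mating in shaken culture at 30 °C for 16 h, diploids were selected and their barcode pairs sequenced. A regression on co-assayed BCL2-family reference pairs converts the normalised counts of each replicate to an apparent Kd. Each pool was mated in six replicate cultures.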

Variants are written as CDR1, CDR2 and CDR3 of the light chain (limits as in the source). Parent: KSSQSVLYESRNKNSVA, WASTRES, QQYHRLPLS.
Numbers give log10(Kd / nM), so 0 is 1 nM and 3 is 1 µM. Smaller is tighter.
A pair that was not seen in that replicate is written "n.d."; this usually means weak binding, but a binder can also be missed.
Nonspecific signal, from three strains lacking the peptide, appeared in 4% of pairings of all light chain designs, centred on 2.64 (5% of these signals below 1.59); values are not corrected for it. The control count says in how many pairings with the empty strains this scFv gave a signal, with their mean in brackets.
Of ten entries with the parent sequence, four were seen in most replicates (averages 0.34 to 2.37), three in one and three in none, so single entries are noisy.
The range of this assay differs from that of the first round, and the authors advise against merging the two.
In the paper, a design with two or fewer of six values counts as a poor binder.

CDR-L1,CDR-L2,CDR-L3,"log10 Kd, replicates",signal with controls
KVDQLGDMESRNKNAVA,SASTRES,QQYHRLPLS,-0.06 -0.28 -0.36 -0.32 -0.31 -0.18,1/18 (1.90)
KISQSALMESRNWNSVA,NASKRES,QQYHRLPLS,0.40 0.30 0.19 0.23 0.44 0.44,2/18 (2.91)
KLYQSEGYESRMDNNVA,NASLRES,QQYHRLPLS,0.27 0.33 0.16 0.11 0.28 0.30,6/18 (3.21)
KSEISVLQESRNQNSVA,EASTREV,QQYHRLPLS,0.79 0.40 0.26 0.42 0.42 0.62,0/18
KLSNSELYQSRNKNSVA,NASTRYS,QQYHRLPLS,0.51 1.75 1.34 1.27 1.13 0.97,0/18
KLMWSVEYESRNQNSVA,SASYRED,QQYHRLPLS,1.20 0.79 0.79 0.58 0.74 0.71,1/18 (2.14)
KIFQSWLYEQRNVNSVA,HASQRLD,QQYHRLPLS,0.98 0.49 0.60 0.69 0.80 0.96,0/18
KLSMSGLYESRNWNSVA,EASLRES,QDYHRLPLS,0.91 0.42 0.42 0.34 1.14 0.54,1/18 (2.13)
KLMPSHLYESRNKNSVA,NASYREQ,QQYHRLPLS,0.57 0.52 0.64 0.43 0.47 0.45,1/18 (2.06)
KQSCSELYGSRNKNSVA,DASQREE,QQYHRLPLS,-0.31 -0.30 -0.43 -0.67 -0.53 -0.24,0/18
KVPQSMLYESRNANSVA,NASTRLE,QQYHRLPLS,0.03 -0.40 -0.42 -0.39 -0.44 -0.17,0/18
KVSPSMWYESRNKNNVA,HASTRES,QQYHRLPLQ,-0.10 -0.24 0.31 -0.29 -0.15 -0.04,0/18
KAPQSMWYESRNQNSVA,SASTRSQ,QQYHRLPLQ,0.10 0.27 0.06 0.44 0.31 0.49,1/18 (2.11)
KLDQSYLYGSRNKNSVA,EASEREV,QQYHRLPLY,-0.01 -0.20 0.39 0.04 -0.15 0.65,0/18
KSSQAWWYESRNKWSVA,NASLREQ,QQYHRLPLS,-0.52 -0.52 -0.36 -0.53 -0.74 -0.66,1/18 (2.17)
KLSGSMLYEERMLNSVA,QASQRMS,QQYHRLPLS,0.01 -0.11 -0.15 -0.27 -0.11 0.03,1/18 (2.27)
KSSQSQLYENRNKNSVA,SASQRES,QQYHRLPLS,0.55 0.12 0.55 0.20 0.34 0.37,3/18 (2.48)
KLEQWQDYESRNKNSVA,QASTREQ,QQYHRLPLS,-0.31 -0.70 -0.53 -0.73 -0.19 -0.39,0/18
KMEQSNGYESRNKNSVA,NASTRES,QQYHRLPLS,-0.09 -0.17 -0.10 -0.31 -0.18 -0.16,1/18 (2.76)
KLSASQLYESRASNAVA,QASTRMM,QQYHRLPLS,0.33 0.17 0.16 0.02 0.13 0.43,1/18 (3.76)
KLSQSELYEDRNINSVA,NASQRCS,QQYHRLPLS,0.38 0.27 0.40 0.00 0.39 0.53,1/18 (2.34)
KSEQLYYYGSRNKNSVA,QASTRES,QQYHRLPLS,0.64 0.38 0.58 0.51 0.51 0.51,1/18 (3.04)
KLSQSGLYEMRNTNSVA,QASQRLQ,QQYHRLPLS,0.49 0.02 0.37 -0.15 0.01 0.47,0/18
KLHQSVLYESRHKNSVA,GASKRES,QQYHRLPLS,1.59 1.51 2.27 1.25 1.24 1.21,0/18
KAQDGELYESRDKNSVA,DASKRLS,QQYHRLPLS,-0.22 0.07 -0.12 -0.11 -0.31 -0.22,0/18
KLMCSMEYESRNKNSVA,NASTREE,QQYHRLPLV,-0.11 -0.30 -0.31 -0.25 -0.35 0.08,2/18 (2.20)
KSAYSCLGESRNCNSVA,SASTREL,QQYHRLPLS,0.77 0.55 0.45 0.42 0.55 0.62,0/18
KLQQGYWYESRNKNSVA,WASTREV,QQYWRLPLS,0.99 2.98 1.20 n.d. 1.03 n.d.,1/18 (1.77)
KLDQWQDYESRNKASVA,QASTRES,QQYHRLPLS,0.61 0.26 0.21 0.32 0.20 0.58,0/18
KLENSNLYESRNGNSVA,NASTRYS,QQYHRLPLS,0.89 0.75 1.01 0.73 0.70 1.32,1/18 (3.07)
KLSQLMLYESRNKNSVA,NASTRLS,QDYHRLPLS,0.74 0.48 0.33 0.43 0.49 0.58,1/18 (2.91)